The list shows a part of the results, in another mix than the full data. Calls of active or inactive are those of the source. Calls come from the whole dose curve; as a rule, active = well fitted curve in the direction sought with a large enough effect; inconclusive = small, poorly fitted or top-dose-only effect, or effect the other way, or another doubt; inactive = no such curve, though single readings can be large or run the other way.

The chains behind the UniProt entries cited, without tags or fusion partners.
UniProt P06280, whole entry: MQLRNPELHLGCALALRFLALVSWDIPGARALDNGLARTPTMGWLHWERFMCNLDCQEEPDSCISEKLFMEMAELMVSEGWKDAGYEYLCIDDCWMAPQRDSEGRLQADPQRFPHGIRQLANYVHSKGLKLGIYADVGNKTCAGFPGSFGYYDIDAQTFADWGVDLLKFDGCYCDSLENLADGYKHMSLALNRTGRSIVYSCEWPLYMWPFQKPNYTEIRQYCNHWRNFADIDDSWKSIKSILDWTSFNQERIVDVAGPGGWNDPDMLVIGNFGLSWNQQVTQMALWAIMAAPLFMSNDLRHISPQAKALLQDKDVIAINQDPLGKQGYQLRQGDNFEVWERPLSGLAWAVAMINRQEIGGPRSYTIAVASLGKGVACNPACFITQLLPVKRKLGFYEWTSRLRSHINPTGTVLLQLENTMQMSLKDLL

This assay concerns the target Alpha-galactosidase A (Homo sapiens) (UniProt P06280). As to the kind of experiment: qHTS Assay for Inhibitors of Human alpha-Galactosidase at pH 4.5.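 Note: 0% = full activity with enzyme and -100% = basal without enzyme.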 The note with it: purified enzyme, 4-MU-alpha-Gal fluorescence; at 105 µM (top of the series) unless noted. The source says:
NIH Chemical Genomics Center [NCGC]
NIH Molecular Libraries Probe Production centers Network [MLPCN]
Assay Submitter (PI): Wei Zheng
Alpha-galactosidase is a homodimeric glycoprotein that hydrolyzes the terminal alpha-galactosyl moieties from glycolipids and glycoproteins. Deficiency of this enzyme results in Fabry Disease with progressive accumulation of globotriaosylceramide and other glycosphingolipids in vascular endothelial cells that causes renal failure, myocardial infarction and stroke, and premature death in patients. It has been reported that the improper folding and trafficking of alpha-galactosidase resulting from the genetic mutations may account for a significant numbers of Fabry patients. […] We optimized this alpha-galactosidase assay in 1536-well plate format for identifying the novel small molecule inhibitors with the structures other than the sugar analogs in order to develop the new pharmacological chaperones. Although this assay has the same protocol as PubChem AID 992, this is a separate project and, therefore, is published as a separate assay
NCGC Assay Protocol Summary:
This is a fluorogenic enzyme assay with 4-Methylumbelliferyl alpha-D-galactopyranoside as the substrate and human […] as the enzyme preparation. Upon the hydrolysis of this fluorogenic substrate, the resulting product, […]. 4-Methyllumbelliferone, can be excited at 365 nm and emits at 440 nm. This fluorescence which can be detected by a standard fluorescence plate reader. Data were normalized to the controls for basal activity (without enzyme) and 100% activity (with enzyme). In the AC50 values were determined from concentration-response data modeled with the standard Hill equation.
Assay buffer: 50 mM citric acid (titrated with potassium phosphate to pH 4.5), 0.005% Tween-20, pH 4.5. (pH 4.5 is an optimal condition for this enzyme assay)
1536-well assay protocol for the human alpha-galactosidase:
(1) Add 2 ul/well of enzyme (12 nM final)
(2) Add 23 nL compounds in DMSO solution. The final titration was 0.7 nM to 77 uM.
(3) Add 1 ul of substrate (400 uM final)
(4) Incubate at room temperature for 20 min.
(5) Add 2 ul stop solution (1M NaOH and 1M Glycine mixture, pH 10)
(6) Detect the assay plate in a ViewLux plate reader (PerkinElmer) with Ex=365 nm and Em=440nm.
Keywords: MLSMR, MLPCN, NIH Roadmap, qHTS, NCGC, : Alpha-galactosidase, Fabry Disease, pharmacological chaperone, chaperone therapy
For the molecule `Nc1cccc([As](=O)(O)c2ccccc2)c1`, the activity change, negative = inhibition is inactive: 9.08%.

As for `CP(=O)(Nc1ccc(SC(F)(F)F)cc1)Oc1ccccc1` (stereo not given), the activity change, negative = inhibition was inactive: -2.74%.

With `Cc1ccc(OCC(=O)OC2CN3CCC2CC3)cc1` (stereo not given), the activity change, negative = inhibition is inactive: 6.27%.

Turning to `O=[As](O)(c1cccs1)c1cccs1`, the activity change, negative = inhibition was inactive: -3.64%.

For the molecule `O=P1(Nc2ccc(Br)cn2)COc2ccccc2OC1`, the activity change, negative = inhibition was inactive: -3.19%.

With `CN1CCCCC1COC(=O)C1(O)c2ccccc2CCc2ccccc21` (stereo not given), the activity change, negative = inhibition is inactive: 8.58%.

On to `COc1ccccc1OP(C)(=O)Nc1c(C)cccc1C` (stereo not given), for which the activity change, negative = inhibition was inactive: 1.62%.

With `O=P1(Nc2ncccn2)COc2ccccc2OC1`, the activity change, negative = inhibition was inactive: 3.65%.

In the case of `Cc1cc(SC(NC(=O)c2ccccc2)C(Cl)(Cl)Cl)nc(C(C)C)n1` (stereo not given), the activity change, negative = inhibition was inactive: 2.47%.

`CCOC(=O)Nc1ccc([As](=O)(O)O)c(O)c1`: the activity change, negative = inhibition is inactive: 6.02%.

Turning to `COc1ccccc1OP(C)(=O)Nc1ccccc1` (stereo not given), the activity change, negative = inhibition was inactive: 3.27%.

As for `Cc1cc(SC(NC=O)C(Cl)(Cl)Cl)ncn1` (stereo not given), the activity change, negative = inhibition is inactive: -3.1%.

Take `O=P(Nc1ccccn1)(c1cccc2ccccc12)c1cccc2ccccc12`: the activity change, negative = inhibition was inactive: -3.14%.

In the case of `O=[N+]([O-])c1ccc(Nc2ccc(Oc3ccc([N+](=O)[O-])cc3[N+](=O)[O-])cc2)c([N+](=O)[O-])c1`, the activity change, negative = inhibition was inactive: 0.464%.

In the case of `CP(=O)(Nc1ccccc1Br)Oc1ccccc1` (stereo not given), the activity change, negative = inhibition was inactive: 7.7%.

Take `CP(=S)(Nn1cnnc1)Oc1ccccc1` (stereo not given): the activity change, negative = inhibition is inactive: 1.71%.

`CCOC(=O)Nc1cccc([As](=O)(O)O)c1`: the activity change, negative = inhibition was inactive: -3.21%.

In the case of `Cc1cc(C)cc(OP(C)(=O)Nc2ccc(SC(F)(F)F)cc2)c1` (stereo not given), the activity change, negative = inhibition is inactive: -10.1%.

On to `CP(=O)(NC(=O)Nc1ccccc1)Oc1ccccc1` (stereo not given), for which the activity change, negative = inhibition is inactive: 3.76%.

In the case of `O=C(COc1ccccc1)OC1CN2CCC1CC2` (stereo not given), the activity change, negative = inhibition is inactive: -3.57%.

Take `CCc1ccc(OP(C)(=O)N2CCN(c3ccc([N+](=O)[O-])cc3)CC2)cc1` (stereo not given): the activity change, negative = inhibition was inactive: -5.71%.

As to `CP(=O)(Oc1ccccc1)OC(c1ccccc1)C(F)(F)F` (stereo not given), the activity change, negative = inhibition is inactive: 2.84%.

Regarding `COP1(=S)c2c(C)nn(CCC#N)c2N=C(c2ccc(F)cc2)N1C` (stereo not given), the activity change, negative = inhibition is inactive: 0.152%.

Consider `CP(=O)(Nc1ccc(SC(F)(F)F)cc1)Oc1ccc(Cl)cc1` (stereo not given), for which the activity change, negative = inhibition is inactive: -5.05%.

Turning to `Cc1cccc(C)c1OP(C)(=O)Nc1ccc(SC(F)(F)F)cc1` (stereo not given), the activity change, negative = inhibition was inactive: -10.4%.

`CCC(C)N(CC(C)C)C(=S)SC(NC(C)=O)C(Cl)(Cl)Cl` (stereo not given): the activity change, negative = inhibition is inactive: -6.07%.

Turning to `CP(=O)(Nc1ccccn1)Oc1ccc(Cl)cc1` (stereo not given), the activity change, negative = inhibition was inactive: 8.83%.

With `CCOP(C)(=S)SCC(=O)NC(C)C(=O)O` (stereo not given), the activity change, negative = inhibition was inactive: 3.85%.

As for `CCOC(=O)c1ccc(NC(=O)C(C)(CCl)SC)cc1` (stereo not given), the activity change, negative = inhibition was inactive: -1.83%.

For `CCOC(=O)c1ccc(NP(C)(=O)Oc2ccc(OC)cc2)cc1` (stereo not given), the activity change, negative = inhibition is inactive: -4.21%.

Take `COc1cc(I)ccc1[As](=O)(O)O`: the activity change, negative = inhibition was inactive: 6.34%.

Consider `COc1ccc2nc(NP(=O)(c3ccccc3)c3ccccc3)sc2c1`, for which the activity change, negative = inhibition is inactive: 2.54%.

For the molecule `Cc1c2c(nc3ccccc13)SC(C(Cl)Cl)C2` (stereo not given), the activity change, negative = inhibition is inactive: -7.35%.

Regarding `Cc1cc(=O)[nH]c(N[N+](=O)[O-])n1`, the activity change, negative = inhibition is inactive: 5.48%.

Turning to `CCN(CC)CCCOC(=O)C(O)(c1ccccc1)c1ccccc1`, the activity change, negative = inhibition is inactive: -26.1%.

Consider `O=C(OC1CN2CCC1CC2)C12CC3CC(CC(C3)C1)C2` (stereo not given), for which the activity change, negative = inhibition was inactive: 1.68%.

On to `COc1ccc(N/C(=N/P(=O)(N2CCOCC2)N2CCOCC2)N2CCOCC2)cc1`, for which the activity change, negative = inhibition was inactive: 4.99%.

`Cc1cccc(C)c1OP(C)(N)=O` (stereo not given): the activity change, negative = inhibition was inactive: 12.2%.

On to `Cc1ccc(OP(=O)(Nc2ccc([N+](=O)[O-])cn2)Oc2ccc(C)cc2)cc1`, for which the activity change, negative = inhibition is inactive: -9.28%.

For the molecule `CC(C)(C)c1ccc(OP(C)(=O)Nc2ccc(SC(F)(F)F)cc2)cc1` (stereo not given), the activity change, negative = inhibition is inactive: -13.1%.

For the molecule `O=[N+]([O-])c1ccc2c(c1)C=Nc1ccccc1O2`, the activity change, negative = inhibition was inactive: 2.66%.

Turning to `Cc1ccc2nc3c(c(C)c2c1)CC(C(Cl)Cl)S3` (stereo not given), the activity change, negative = inhibition was inactive: 1.43%.

With `O=[As](O)(c1ccc(O)cc1)c1ccccc1O`, the activity change, negative = inhibition is inactive: -0.38%.

Consider `C[As](=O)(O)c1cccc(C(=O)O)c1`, for which the activity change, negative = inhibition is inactive: -0.634%.

As for `COc1ccc(OP(C)(=O)Nc2cccc(F)c2)cc1` (stereo not given), the activity change, negative = inhibition is inactive: 8.38%.

Regarding `O=[N+]([O-])c1cc([N+](=O)[O-])c(-c2ccn[nH]2)s1`, the activity change, negative = inhibition is inactive: 2.81%.

Turning to `CC(C)NC(=O)NP(=O)(Oc1ccccc1)Oc1ccccc1`, the activity change, negative = inhibition was inactive: -1.67%.

In the case of `COc1ccccc1OP(C)(=O)Nc1cc(Cl)ccc1C` (stereo not given), the activity change, negative = inhibition was inactive: 6.25%.

With `CCN(CC)C(=S)SC(NC=O)C(Cl)(Cl)Cl` (stereo not given), the activity change, negative = inhibition is inactive: -15.8%.

Regarding `Cc1cc(C)cc(OP(C)(N)=O)c1` (stereo not given), the activity change, negative = inhibition is inactive: 6.09%.

On to `ClCCSc1nnc(-c2cccnc2)o1`, for which the activity change, negative = inhibition is inactive: 12.1%.

For the molecule `CCOC(=O)c1ccc(NP(C)(=O)Oc2ccccc2)cc1` (stereo not given), the activity change, negative = inhibition is inactive: 2.4%.

In the case of `Cc1ccc(NP(C)(=O)Oc2ccccc2)c(C)c1` (stereo not given), the activity change, negative = inhibition was inactive: -1.24%.

For `CC(C)c1ccc(OP(=O)(Nc2ccccn2)Oc2ccccc2F)cc1` (stereo not given), the activity change, negative = inhibition was inactive: -1.67%.

In the case of `COc1ccccc1OP(C)(=O)Nc1ccc(C)cc1` (stereo not given), the activity change, negative = inhibition was inactive: -1.66%.

For the origin of these results see PubChem BioAssay AID1467 (National Center for Advancing Translational Sciences (NCATS), 2008).
